“And” between values parts separate entries of the source, which are not always exact repeats. Identical values can stand only once.
Experiment: Deuterium exchange followed by mass spectrometry
Details: for total exchangeable protons: pH 5, dilution into D2O

| Substance | slowly exchanging protons (not exchanged within ca. 1 hour) (pH 5) | total exchangeable protons | proton exchange amplitude, fast phase (pH 5, fastest exchange, lasting at most ca. 1 hour) |
| --- | --- | --- | --- |
| MGEFLIVKS-GGGGDYKDDDDKGGGG-EFLIVKSGPP | does not have slowly exchanging protons | 36 and 35.9 | 35 and 34.8 |
| MGEFLIVKS-GGGGYPYDVPDYASLGGGG-EFLIVKSGPP | did not have slowly exchanging protons | 40.3 | – |

From US6709814B1, “Peptides causing formation of compact structures” (Rigel Pharmaceuticals, Inc., priority 1998, dated 2004)
